The values that follow are results of earlier work, collected in article PMC2913173.

The chains behind the UniProt entries cited, without tags or fusion partners. Where a name states a change or a piece, a line headed by the entry shows the natural chain unless it says otherwise.
UniProt Q07817, whole entry: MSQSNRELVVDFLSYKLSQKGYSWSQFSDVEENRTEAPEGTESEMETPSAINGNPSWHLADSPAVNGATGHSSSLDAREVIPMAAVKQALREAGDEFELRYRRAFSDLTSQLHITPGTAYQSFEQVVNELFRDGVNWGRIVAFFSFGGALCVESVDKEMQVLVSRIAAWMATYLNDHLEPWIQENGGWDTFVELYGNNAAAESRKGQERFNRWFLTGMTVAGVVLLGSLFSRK
UniProt Q16611: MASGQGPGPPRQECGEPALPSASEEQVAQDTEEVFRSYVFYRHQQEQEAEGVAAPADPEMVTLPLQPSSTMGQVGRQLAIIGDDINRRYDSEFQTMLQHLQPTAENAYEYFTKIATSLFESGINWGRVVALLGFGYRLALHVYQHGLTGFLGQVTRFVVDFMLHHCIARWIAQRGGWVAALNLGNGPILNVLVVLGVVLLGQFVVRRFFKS

Read-outs that look alike come from different tables or passages of the source.

Series [1] has as its target Bcl-xL (Homo sapiens) (UniProt Q07817).
For series [2] the target is unchanged. This is another data set of the same source.

What is called Kd is the equilibrium constant for the complex coming apart. In the case of Bak 72-87 (from UniProt Q16611), the Kd was 340 nM in the series with Bcl-xL (Homo sapiens) [1] and 480 nM with Bcl-xL (Homo sapiens) [2].
